Tests used:
[1] = tested on: S. cerevisiae expressing human Hsp90β; format: cell-based, Saccharomyces cerevisiae; details: isogenic strains
Text: A critical consideration in the development of an effective antifungal is not just target binding, but also access to the target across microbial cell membranes and cell walls. Therefore, we evaluated the potency and selectivity of oxime analogs using drug susceptibility assays. We used strains of S. cerevisiae where both endogenous genes encoding isoforms of Hsp90 have been disrupted and growth is solely dependent upon C. albicans or human Hsp90 isoforms.
(§1) Antifungal tolerance and resistance were determined in flat bottom, 96-well microtiter plates using a modified broth microdilution protocol as described[8],[10]. All Hsp90 inhibitors were formulated in dimethyl sulfoxide (DMSO, Sigma Aldrich Co.); fluconazole was dissolved in sterile ddH2O. Each strain was tested in duplicate on at least two occasions. […] To test for fungicidal activity, cultures from MIC plates were spotted on YPD agar plates using a spotter (Frogger, V&P Scientific, Inc). Plates were photographed after 48 h of incubations at 30 °C.

[2] = tested on: C. albicans reporter strain CaLC922; format: cell-based, Candida albicans; details: 6-h exposure
Procedure: In addition to effects on host immune function, we also examined activation of the evolutionarily conserved heat-shock response by CMLD013075.
Activation of the response in C. albicans was also measured in 96-well format using a reporter strain (CaLC922) engineered with HSP70 promoter elements driving expression of the LacZ gene from Streptococcus thermophilus integrated at the HSP70 locus with the URA3 marker for selection. […]

C. albicans SN95 = test: Checkerboard with fluconazole then spotting on drug-free agar (fungicidal activity); format: cell-based, Candida albicans; details: 48 h liquid culture, then drug-free solid medium
Procedure: as §1

3T3 cells = test: Mammalian cell toxicity, resazurin dye reduction; details: 3-day culture

SMILES: C[C@@H]1C[C@H]2O[C@@H]2/C=C\C=C\C(=O)Cc2c(Cl)c(O)cc(O)c2C(=O)O1 [radicicol, reference compound]
- activity compared with strain expressing C. albicans Hsp90 [1]: converse
- heat-shock reporter activation [2]: neither ganetespib nor radicicol induced the reporter to a measurable extent
- fungicidal activity in combination with FL (C. albicans SN95): transformed the fungistatic azole into a fungicidal combination
- cytotoxicity to 3T3 relative to HEPG2 (less cytotoxic) (3T3 cells): at least 10 fold

Source: article PMC6345968, “Structural basis for species-selective targeting of Hsp90 in a pathogenic fungus” (Nature Communications, 2019)
